Laboratory results as given in paper PMC6318328, “Structural insights into trans-histone regulation of H3K4 methylation by unique histone H4 binding of MLL3/4” (Nature Communications, 2019).

Protein sequences, listed by entry. Tags and fused reporters are not part of them. Residues count along the entry.
UniProt O14686, 1475-1564: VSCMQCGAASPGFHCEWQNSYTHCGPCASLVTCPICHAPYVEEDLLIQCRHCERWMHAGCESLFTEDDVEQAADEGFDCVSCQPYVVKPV
UniProt Q8NEZ4, 1055-1144: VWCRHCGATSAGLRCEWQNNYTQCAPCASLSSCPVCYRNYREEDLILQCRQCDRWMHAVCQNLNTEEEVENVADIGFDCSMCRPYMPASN

Tests used:
[1] = target: T1, MLL4_(ePHD6)1475–1564 (Homo sapiens, UniProt O14686); test: ITC binding of histone peptides to MLL4 ePHD6 (1475–1564); parameters: key: NB: no detectable binding; conditions: 20 mM Tris pH 7.5, 150 mM NaCl, 25 °C, protein 50–100 μM in cell, peptide 1–2 mM in syringe, single measurement, error from fitting curve
T1 construct: MLL4_ePHD6, residues 1475–1564, and residues 1495–1564; GST (N, cleaved yes); His (N, cleaved yes); made in house; host or cells: E. coli BL21 (DE3) Codon plus RIL
Source text: (§1) The DNA fragments of MLL3 and MLL4 PHD domains (MLL3_ePHD6, residues 1055–1144 and residues 1075–1144; MLL3_PHD6, residues 1085–1144; MLL3_PHD5, residues 1009–1055; MLL3_PHD5-6, residues 1008–1144; MLL3_ePHD3, residues 436–525; MLL4_ePHD6, residues 1475–1564, and residues 1495–1564; MLL4_PHD6 residues 1505–1564 and MLL4_PHD5 residues 1429–1475) were subcloned into a modified pET28GST-LIC vector by T4 ligase-independent method (Clontech, 638920) to generate N-terminal GST, His-tagged fusion protein. The recombinant protein was overexpressed in E coli BL21 (DE3) Codon plus RIL (Stratagene) at 15 °C by induction with 0.25 mM IPTG at an OD600 of 0.8 and purified by affinity chromatography on Ni-nitrilotriacetate resin (Qiagen, 30250) followed by thrombin protease treatment to remove the tag. The protein was further purified by HiTrap Q HP column (GE Healthcare, 17115401) by using buffers with 20 mM Tris, pH 8.0, 1 mM DTT, 50 mM NaCl (low salt buffer) or 1 M NaCl (high salt buffer), and Superdex75 gel-filtration column (GE Healthcare, 28989333) by using a buffer containing 20 mM Tris, pH 7.5, 150 mM NaCl, 50 μM ZnCl2, and 1 mM DTT. For crystallization experiments, purified protein was concentrated to 5 mg mL^−1 in the same buffer as gel-filtration by using Amicon Ultra-15 Centrifugal Filter Units (Millipore Corporation, UFC901024). […]

[2] = target: T2, MLL3_(ePHD6)1055–1144 (Homo sapiens, UniProt Q8NEZ4); test: ITC binding of histone peptides to MLL3 ePHD6 (1055–1144); parameters: key: NB: no detectable binding; conditions: 20 mM Tris pH 7.5, 150 mM NaCl, 25 °C, protein 50–100 μM in cell, peptide 1–2 mM in syringe, single measurement, error from fitting curve
T2 construct: MLL3_ePHD6, residues 1055–1144 and residues 1075–1144; GST (N, cleaved yes); His (N, cleaved yes); made in house; host or cells: E. coli BL21 (DE3) Codon plus RIL
Source text: as §1

Substance	Kd [1]	Kd [2]
H3_1–15K4me2: histone H3 peptide K4me2	NB	NB
H3_1–15K4me3: histone H3 peptide K4me3	NB	NB
